Measured values reported in article PMC4860837, “Structural basis for Sfm1 functioning as a protein arginine methyltransferase” (Cell Discovery, 2015).

Target: human ribosomal protein S3 (purified recombinant, used in analytical gel filtration) (human) (UniProt P23396)
Assay: SEC; analytical gel filtration, Superdex 200 10/30, 20 mM Tris-HCl pH 8.0, 300 mM NaCl, 0.5 ml/min; proteins alone (Sfm1 with or without SAH) or Sfm1 and human S3 mixed at 1:1 molar ratio; peak analysed by SDS-PAGE; apparent molecular weights

stoichiometry N: 2
Substance: human ribosomal protein S3 (purified recombinant, used in analytical gel filtration) (from UniProt P23396 1-243) (natural protein)
